Source: US11292791B2

Biological target: BRD4 (Homo sapiens (Human), UniProt O60885)
Experiment: HTRF biochemical assay for BRD4 activity
Conditions: read-out: BRD4 IC50 (μM gmean), HTRF (TR-FRET) biochemical assay

`COC(=O)N1c2ccc3c(nc(Cc4ccccc4)n3C3CNC3)c2CC[C@@H]1C` was tested, and the IC50 was 1 to 1000 µM.

This is a selection: effects in other tests are not listed, and their absence says nothing.
